From paper PMC12836348, “Alanine Mutagenesis Identifies Specific Amino Acids of Nemertide Alpha‑1 Activity and Its Binding to Target Receptors” (Journal of Natural Products, 2025) come the findings set out here.

Sequences of proteins named here, by UniProt entry; tags and fusion partners are left off.
UniProt Q14524, whole entry: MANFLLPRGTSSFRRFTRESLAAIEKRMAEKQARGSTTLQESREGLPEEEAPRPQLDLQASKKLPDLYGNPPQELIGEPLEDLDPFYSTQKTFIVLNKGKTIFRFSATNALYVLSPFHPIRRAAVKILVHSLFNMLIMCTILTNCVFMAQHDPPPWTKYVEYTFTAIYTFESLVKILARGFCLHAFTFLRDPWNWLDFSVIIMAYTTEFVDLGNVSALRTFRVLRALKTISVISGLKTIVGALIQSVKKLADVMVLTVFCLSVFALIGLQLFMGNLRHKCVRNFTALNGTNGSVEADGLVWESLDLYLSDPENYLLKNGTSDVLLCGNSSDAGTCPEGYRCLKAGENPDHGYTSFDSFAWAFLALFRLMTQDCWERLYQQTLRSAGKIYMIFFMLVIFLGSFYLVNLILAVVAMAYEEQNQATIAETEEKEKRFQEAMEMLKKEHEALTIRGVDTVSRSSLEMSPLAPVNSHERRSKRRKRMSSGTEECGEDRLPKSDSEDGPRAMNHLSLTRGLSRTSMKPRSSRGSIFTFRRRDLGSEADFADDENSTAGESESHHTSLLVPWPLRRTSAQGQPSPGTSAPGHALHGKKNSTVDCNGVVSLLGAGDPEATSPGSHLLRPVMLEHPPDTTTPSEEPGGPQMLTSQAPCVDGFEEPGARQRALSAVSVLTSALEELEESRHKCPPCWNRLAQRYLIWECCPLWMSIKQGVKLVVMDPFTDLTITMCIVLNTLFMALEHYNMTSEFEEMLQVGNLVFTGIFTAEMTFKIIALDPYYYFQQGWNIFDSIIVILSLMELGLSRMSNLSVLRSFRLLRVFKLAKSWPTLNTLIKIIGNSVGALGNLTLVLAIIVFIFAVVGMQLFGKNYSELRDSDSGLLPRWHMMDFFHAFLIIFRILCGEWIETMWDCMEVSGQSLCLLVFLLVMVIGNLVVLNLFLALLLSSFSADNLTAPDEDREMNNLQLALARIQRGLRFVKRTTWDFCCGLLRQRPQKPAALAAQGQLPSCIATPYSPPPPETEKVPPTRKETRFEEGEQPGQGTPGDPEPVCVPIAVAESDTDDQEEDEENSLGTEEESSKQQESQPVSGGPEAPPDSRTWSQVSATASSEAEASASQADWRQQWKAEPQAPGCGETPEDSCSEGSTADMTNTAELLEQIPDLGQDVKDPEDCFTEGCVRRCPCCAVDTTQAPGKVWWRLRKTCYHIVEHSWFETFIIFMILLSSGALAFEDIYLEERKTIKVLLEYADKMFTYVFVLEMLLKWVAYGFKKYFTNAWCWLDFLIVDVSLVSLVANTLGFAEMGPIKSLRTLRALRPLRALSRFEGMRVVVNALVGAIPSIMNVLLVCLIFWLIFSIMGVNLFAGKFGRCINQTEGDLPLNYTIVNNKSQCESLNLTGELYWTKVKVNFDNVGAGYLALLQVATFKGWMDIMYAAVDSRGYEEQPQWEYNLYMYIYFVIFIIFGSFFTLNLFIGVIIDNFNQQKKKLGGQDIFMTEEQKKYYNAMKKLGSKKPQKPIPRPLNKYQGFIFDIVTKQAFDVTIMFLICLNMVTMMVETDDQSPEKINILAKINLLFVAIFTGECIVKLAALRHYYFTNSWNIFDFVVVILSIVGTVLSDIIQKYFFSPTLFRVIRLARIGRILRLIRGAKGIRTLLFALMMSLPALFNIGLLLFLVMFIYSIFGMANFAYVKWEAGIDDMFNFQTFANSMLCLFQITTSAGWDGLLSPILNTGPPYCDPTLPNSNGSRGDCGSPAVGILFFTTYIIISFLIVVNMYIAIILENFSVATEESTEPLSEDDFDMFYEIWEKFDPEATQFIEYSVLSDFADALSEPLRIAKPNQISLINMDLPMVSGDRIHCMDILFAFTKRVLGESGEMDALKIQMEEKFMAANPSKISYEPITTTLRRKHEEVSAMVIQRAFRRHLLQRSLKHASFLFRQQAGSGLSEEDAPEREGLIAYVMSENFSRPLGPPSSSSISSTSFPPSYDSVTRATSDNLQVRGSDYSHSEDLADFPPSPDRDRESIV

The test deals with T1, hNaV1.5 (Homo sapiens, UniProt Q14524).
T1 construct: expressed in transfected cells; host or cells: Xenopus laevis oocytes (cRNA injection)
Description: Two-electrode voltage clamp, Nav1.5 in Xenopus laevis oocytes. The test is classed as cell-based. As to conditions: n ≥ 3. Details: key to effect on Nav1.5: “+” means tested and produced effect; “–“ means tested but no effect. (Two-electrode voltage clamp is typically applied to oocytes expressing channels or transporters.)

Entries after “also recorded” stand apart in the source; their conditions may differ.

As for `CC[C@H](C)[C@@H]1NC(=O)[C@@H](NC(=O)CN)CSSC[C@@H]2NC(=O)[C@@H]3CSSC[C@@H](C(=O)N[C@@H](CC(N)=O)C(=O)N4C[C@H](O)C[C@H]4C(=O)N4C[C@H](O)C[C@H]4C(=O)N[C@@H](CC(N)=O)C(=O)N[C@@H](CCC(N)=O)C(=O)O)NC(=O)[C@H](CCCCN)NC(=O)[C@H](Cc4ccccc4)NC(=O)[C@H](CC(N)=O)NC(=O)[C@H](Cc4c[nH]c5ccccc45)NC(=O)CNC(=O)[C@H](CSSC[C@H](NC(=O)[C@H](Cc4ccccc4)NC(=O)[C@H](CO)NC(=O)CNC(=O)[C@H]([C@@H](C)O)NC(=O)[C@H](C)NC1=O)C(=O)N[C@@H]([C@@H](C)O)C(=O)N[C@@H](CC(C)C)C(=O)N[C@@H](C)C(=O)N[C@@H](CCCCN)C(=O)NCC(=O)N3)NC(=O)[C@H](CC(N)=O)NC(=O)[C@H](CCCCN)NC(=O)[C@H]([C@@H](C)O)NC2=O` [Peptide S12A], the “effect on Nav1.5” value (S12A at 5 μM, Xenopus oocytes) is reported as “–”. Where the note is “ex vivo, two-electrode voltage clamp in Xenopus laevis oocytes, Hill fit, highest tested concentration 50 μM”, the “EC50 Nav1.5” value was “no detectable activity; also recorded: inactive at the tested concentration”.
